Data: paper PMC5923235 (2018)

Columns and labels:
[1] = biological target: T1, NTS1 V307C^6.34 (TM6) in the Cys-depleted background of rat neurotensin receptor 1 (rat, UniProt P20789, C172S^3.55 | C278S^IC3 | C332S^6.59 | C386S^C-term | C388S^C-term | V307C^6.34, Cys307 labelled with Alexa Fluor 488 or Alexa Fluor 555 (ensemble FRET), MTSL spin label (DEER)); experiment: MST; 5 uM NT8-13, detergent
[2] = biological target: T2, NTS1 T186C^4.42 (TM4) in the Cys-depleted background of rat neurotensin receptor 1 (rat, UniProt P20789, C172S^3.55 | C278S^IC3 | C332S^6.59 | C386S^C-term | C388S^C-term | T186C^4.42, Cys186 labelled with Cy3 or Cy5 (smFRET), Alexa Fluor 488 or Alexa Fluor 555 (ensemble FRET), Alexa Fluor 488 (test with Gαi1), MTSL spin label (DEER)); experiment: MST; 5 uM NT8-13, detergent
[3] = biological target: T3, wild-type NTS1 (rat neurotensin receptor 1) (rat, UniProt P20789 43-424); experiment: MST; 5 uM NT8-13, detergent
T3 chain: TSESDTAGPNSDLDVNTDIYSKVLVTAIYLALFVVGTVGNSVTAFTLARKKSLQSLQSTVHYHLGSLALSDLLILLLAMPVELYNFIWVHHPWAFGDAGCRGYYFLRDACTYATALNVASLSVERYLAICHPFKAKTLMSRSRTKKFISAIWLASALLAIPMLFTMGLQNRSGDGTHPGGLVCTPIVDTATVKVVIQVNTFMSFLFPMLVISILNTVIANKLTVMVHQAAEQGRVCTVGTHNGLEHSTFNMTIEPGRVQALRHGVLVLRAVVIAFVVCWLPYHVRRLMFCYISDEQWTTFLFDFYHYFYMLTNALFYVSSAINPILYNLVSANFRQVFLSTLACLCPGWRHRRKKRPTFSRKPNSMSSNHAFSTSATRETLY

[4] = biological target: T1, NTS1 V307C^6.34 (TM6) in the …; experiment: MST; 5 uM NT8-13 + 0.5 mM GTPγS, detergent
[5] = biological target: T2, NTS1 T186C^4.42 (TM4) in the …; experiment: MST; 5 uM NT8-13 + 0.5 mM GTPγS, detergent

B1: Gαi1 (natural protein)
chain: MGCTLSAEDKAAVERSKMIDRNLREDGEKAAREVKLLLLGAGESGKSTIVKQMKIIHEAGYSEEECKQYKAVVYSNTIQSIIAIIRAMGRLKIDFGDSARADDARQLFVLAGAAEEGFMTAELAGVIKRLWKDSGVQACFNRSREYQLNDSAAYYLNDLDRIAQPNYIPTQQDVLRTRVKTTGIVETHFTFKDLHFKMFDVGGQRSERKKWIHCFEGVTAIIFCVALSDYDLVLAEDEEMNRMHESMKLFDSICNNKWFTDTSIILFLNKKDLFEEKIKKSPLTICYPEYAGSNTYEEAAAYIQCQFEDLNKRKDTKEIYTHFTCATDTKNVQFVFDAVTDVIIKNNLKDCGLF
B1 was tested, and the Kd [1] was 1000 nM, the Kd [2] was 1000 nM and the Kd [3] was 500 nM. The Kd [4] was 19000 nM and the Kd [5] was 60000 nM.
